The results in this text go back to US8637263B1, “Assay for determination of compounds having anti-emetic activity” (Epiomed Therapeutics, Inc., priority 2010, dated 2014).

Amino acid sequences for entries named in this document (tags omitted). A change or cut given only in a name is not applied to a line headed by its entry.
UniProt P34969, whole entry: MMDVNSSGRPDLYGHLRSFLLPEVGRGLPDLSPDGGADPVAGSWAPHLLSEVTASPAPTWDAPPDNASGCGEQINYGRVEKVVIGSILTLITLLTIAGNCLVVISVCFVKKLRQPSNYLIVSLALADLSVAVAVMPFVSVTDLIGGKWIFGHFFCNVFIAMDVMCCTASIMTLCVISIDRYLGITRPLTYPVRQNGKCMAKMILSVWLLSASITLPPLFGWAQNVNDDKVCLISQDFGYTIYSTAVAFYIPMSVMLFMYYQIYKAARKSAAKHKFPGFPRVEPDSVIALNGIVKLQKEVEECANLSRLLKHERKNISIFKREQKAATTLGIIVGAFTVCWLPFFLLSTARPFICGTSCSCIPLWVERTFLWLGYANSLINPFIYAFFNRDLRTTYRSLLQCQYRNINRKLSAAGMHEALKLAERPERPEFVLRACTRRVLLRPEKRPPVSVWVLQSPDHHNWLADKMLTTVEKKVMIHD
UniProt P28565: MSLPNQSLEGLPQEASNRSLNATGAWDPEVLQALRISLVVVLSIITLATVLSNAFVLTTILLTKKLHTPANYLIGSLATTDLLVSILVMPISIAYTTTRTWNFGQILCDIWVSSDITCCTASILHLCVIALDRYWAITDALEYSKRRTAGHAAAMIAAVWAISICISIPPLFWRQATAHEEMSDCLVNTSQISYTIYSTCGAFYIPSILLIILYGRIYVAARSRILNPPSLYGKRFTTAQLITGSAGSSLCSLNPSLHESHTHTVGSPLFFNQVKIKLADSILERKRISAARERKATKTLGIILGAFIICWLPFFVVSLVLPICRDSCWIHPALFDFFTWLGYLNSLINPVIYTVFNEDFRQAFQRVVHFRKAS

Assay [1] addresses T1, 5-HT7 receptor (Homo sapiens, UniProt P34969).
T1 construct: purchased Cerep
The assay can be described thus: 5-HT7 receptor binding assay (Cerep).

In assay [2] the target is T2, 5-HT1d receptor (Rattus norvegicus, UniProt P28565).
T2 construct: purchased Cerep
The assay can be described thus: 5-HT1d compound efficacy (agonist EC50), impedance. The class given is cell-based.

Assay [3] concerns the target T2, 5-HT1d receptor. The assay can be described thus: 5-HT1d receptor binding assay (Cerep).
Assay [4] concerns the target T1, 5-HT7 receptor. The assay can be described thus: 5-HT7 compound efficacy (agonist EC50), cyclic-AMP. Format: cell-based.

pEC50, pKi: −log10 of the molar value. Where a name gives a salt, the structure may show the parent alone.

The term pKi denotes the negative decadic logarithm of the Ki, by convention in mol/L. The low end stands for a large Ki, the high end for a small Ki. One may read the pEC50 as the negative decadic logarithm of the EC50, by convention in mol/L. Low values mean a high EC50, high ones a low EC50. Regarding `CCCN(CCC)[C@H]1CCc2cccc(O)c2C1` [S-(−)-DPAT, S(−)-8-Hydroxy-2-(dipropylamino)tetralin hydrobromide], the pKi on 5-HT7 receptor [1] was 7.54; at 5-HT1d receptor [3], 6.07. The pEC50 at 5-HT1d receptor [2] is 6.38; on 5-HT7 receptor [4], 4.59.
The matching figures for `CCCN(CCC)[C@@H]1CCc2cccc(O)c2C1` [R-(+)-DPAT, R(+)-8-Hydroxy-2-(dipropylamino)tetralin hydrobromide]: 8.29, 7.17, 7.85 and 5.92.
